Experimental properties from OPERA 2.9

From the experimental data distributed with OPERA 2.9.

The melting point is given in degrees Celsius.
The boiling point refers to atmospheric pressure (760 mmHg), by the definition of the set.
logP is the log10 of the octanol-water partition coefficient; higher is more lipophilic.
Water solubility is log10 of mol/L, nominally at 25 °C; higher is more soluble.
Vapor pressure is log10 of mmHg; the set covers 15 to 30 °C, mostly 20 to 25 °C.
fu is the fraction unbound in human plasma, from 0 to 1.
Intrinsic clearance (human, µL/min per 10^6 hepatocytes): higher is faster turnover, and 0 stands for none detected.
"–" marks a cell with nothing listed here.

mp (°C),boiling point (°C),log Kow,log solubility (log10 mol/L),vapor pressure (log10 mmHg),fraction unbound,Clint (µL/min/10^6 cells),SMILES
–,–,–,-3.64,–,0.07,–,Cc1cc(C(=O)NCCc2ccc(S(=O)(=O)NC(=O)NN3CCCCCC3)cc2)no1
181,–,-0.248,–,–,–,–,CCCCC(CC)COS(=O)(=O)[O-].[Na+] (configuration not stated)
-33.5,–,–,–,-1.952,–,–,CC(=O)Oc1cccc(OC(C)=O)c1
–,–,4.5,-4.685,–,0.1,–,O=C1[C@H](CC[C@H](O)c2ccc(F)cc2)[C@@H](c2ccc(O)cc2)N1c1ccc(F)cc1
36,362.3,6.9,-7.422,-6.198,–,–,CCCCc1ccc(-c2ccc(OCC)c(F)c2F)cc1
75.55,–,–,-10.04,–,–,–,CCCCCCCCCCCCCCCCCC(=O)OCC(COCC(COC(=O)CCCCCCCCCCCCCCCCC)(COC(=O)CCCCCCCCCCCCCCCCC)COC(=O)CCCCCCCCCCCCCCCCC)(COC(=O)CCCCCCCCCCCCCCCCC)COC(=O)CCCCCCCCCCCCCCCCC
–,–,3.2,-3.026,-2.238,–,–,CC(C)C(=O)OCCOc1ccccc1
-19.7,–,3.5,-2.006,–,–,–,CC1CCC(C(C)C)C(OCC(O)CO)C1 (configuration not stated)
204,–,3.11,-6.328,-12.78,–,–,CCN(CC)c1ccc(N=Nc2c(C#N)cc([N+](=O)[O-])cc2[N+](=O)[O-])c(NC(C)=O)c1
–,–,2.4,-2.565,–,0.1434,–,Nc1ccc(Nc2ccccc2)cc1
–,–,–,–,–,0.331,29.6,N#CSCSc1nc2ccccc2s1
–,–,4.29,-4.275,-2.569,–,–,CC1C(C)(C)C2=C(C3OCOCC3CC2)C1(C)C (configuration not stated)
54,–,–,–,-6.824,–,–,CCCC[N+](C)(CCCC)CCCC.COS(=O)(=O)[O-]
–,–,3.46,-2.772,-1.301,–,–,C=CC(=C)CCCC(C)(C)O
–,322.1,–,-8.412,–,–,–,CCCCCCCCC=CCCCCCCCCO[PH](=O)OCCCCCCCCC=CCCCCCCCC
–,–,7.27,-10.1,–,–,–,CCCCCCCCCCCCCCCCOC(=O)CC(O)(CC(=O)OCCCCCCCCCCCCCCCC)C(=O)OCCCCCCCCCCCCCCCC
15,–,–,-6.981,–,–,–,CCCCCCCCC=CCCCCCCCC(=O)OCCCCCCCCCCCCCC
126,–,–,-1.269,–,–,–,O=C(COC(=O)c1ccccc1)NC(CO)(CO)CO
–,–,3.37,-4.396,-4.426,–,–,O=C(c1ccc(F)cc1)c1ccc(F)cc1
–,–,–,-3.174,0.26,–,–,CC/C=C\CCOC(=O)C(C)C
–,–,4,-6.978,–,–,–,O=C(Nc1ccccc1SSc1ccccc1NC(=O)c1ccccc1)c1ccccc1
–,–,2.98,-5.263,-6.813,–,–,O=C(CCCCC(=O)OCC1CCC2OC2C1)OCC1CCC2OC2C1 (configuration not stated)
–,206.2,0.8,–,-1.212,–,–,CC(=O)OCCC(C)(C)O
255,–,-0.06,-1.727,-8.803,–,–,Cc1nccn1CCc1nc(N)nc(N)n1
301,–,–,-7.466,–,–,–,COc1cc([N+](=O)[O-])ccc1N=NC(C(C)=O)C(=O)Nc1cc(Cl)ccc1OC (configuration not stated)
–,–,–,-7.908,-6.293,–,–,Brc1ccc(Oc2ccc(Br)c(Br)c2)cc1Br

3 of these entries, quoted again:

SMILES,mp (°C),boiling point (°C),log Kow,log solubility (log10 mol/L),vapor pressure (log10 mmHg),fraction unbound,Clint (µL/min/10^6 cells)
CCCCC(CC)COS(=O)(=O)[O-].[Na+] (configuration not stated),181,–,-0.248,–,–,–,–
Nc1ccc(Nc2ccccc2)cc1,–,–,2.4,-2.565,–,0.1434,–
O=C(c1ccc(F)cc1)c1ccc(F)cc1,–,–,3.37,-4.396,-4.426,–,–

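The numbers are reported measurements, compiled and curated for the OPERA QSAR suite. The files give a single number for a compound and property, which may rest on several reports. Conditions of the individual experiments are not part of the data. Where a salt, mixture or single isomer is drawn, the source does not say that exactly this form was tested. Unmarked limits or estimates from the upstream databases cannot be ruled out.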